# From patent US20200148682A1, “AKT ISOZYME-SPECIFIC COVALENT INHIBITORS DERIVED FROM REDOX-SIGNALING LIPIDS” (Cornell University, priority 2017, published 2020)
# The chains behind the UniProt entries cited, without tags or fusion partners. Where a name states a change or a piece, a line headed by the entry shows the natural chain unless it says otherwise.
# UniProt Q9Y243: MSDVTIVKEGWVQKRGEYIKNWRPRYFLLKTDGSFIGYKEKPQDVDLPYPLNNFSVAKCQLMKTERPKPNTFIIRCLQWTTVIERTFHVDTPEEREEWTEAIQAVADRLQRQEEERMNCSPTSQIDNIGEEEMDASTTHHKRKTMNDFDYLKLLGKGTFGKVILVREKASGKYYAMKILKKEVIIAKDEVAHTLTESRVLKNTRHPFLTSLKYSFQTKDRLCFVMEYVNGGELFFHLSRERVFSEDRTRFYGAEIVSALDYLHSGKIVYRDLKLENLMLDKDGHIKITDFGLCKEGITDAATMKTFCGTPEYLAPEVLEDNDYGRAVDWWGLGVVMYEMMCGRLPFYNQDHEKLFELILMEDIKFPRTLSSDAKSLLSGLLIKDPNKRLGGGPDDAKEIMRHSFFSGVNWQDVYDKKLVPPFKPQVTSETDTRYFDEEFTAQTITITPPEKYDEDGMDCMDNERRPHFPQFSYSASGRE
# Key:
# Type in all cases: cell-based
# [1] = test system: Akt1, Akt2, Akt3 isoforms; assay: Akt isoform selectivity of covalent inhibition (in-gel fluorescence, transfected HEK293T cells)
# Excerpt: Overexpressed Akt proteins were labeled with Cy5-small-molecule-fluorophore-conjugated azide (Cy5-azide) using standard click chemistry. FIG. 16A top gel is an image showing Cy5 channel (used to evaluate the extent of covalent binding on each Akt protein). The lysate from non-transfected HEK 293T cells was also used for comparison. M, molecular weight ladder. […] FIG. 16B top gel is an image showing Cy5 channel. M is a molecular weight ladder. FIG. 16B bottom is an image showing western blots probing Halo and actin, respectively. […] Error bars designate s.d. […] Normalized fluorescent signal (NFS) was calculated from the following equation: NFS=[(Cy5(X μM drug)−Cy5(No transfection))/Halo(X μM drug)]÷[(Cy5(no drug)−Cy5(No transfection))/Halo(no drug)]. The relative fluorescent signal (RFS) is calculated from the following equation: RFS=(Cy5(X μM drug)/Halo(X μM drug)) (Cy5(no drug)/Halo(no drug))
# Cell transfection with the designated plasmid encoding a given HaloTag-Akt fusion gene was carried out following the general procedure described in Example 12. After 20-24 hours, the transfection media were aspirated and replaced with fresh 2 mL rinse MEM medium supplemented with 3% FBS containing the indicated concentration of inhibitor or the equivalent final volume of DMSO and the plates were incubated for the indicated period of time. […]
# MDA-MB-468 = assay: Cell viability assay (AlamarBlue); details: MDA-MB-468, 72 hours
# Protocol: (§1) FIGS. 22A and 22D are graphs showing results of cytotoxicity assays for MDA-MB-468 (FIG. 22A) and BT-549 (FIG. 22D). […] Stated cell lines were plated in 96-well plates (3000 cells per well) in the presence of the stated concentration of inhibitor. After 72 hours, the number of viable cells was analyzed by AlamarBlue®. Proliferation inhibition 50% (PI50) values were calculated by fitting data to “PI50 equation” (EQN 4) (FIG. 22C). MDA cells were transfected with the stated siRNA using lipofectamine 3000 for 12 hours. […] After 72 hours, the number of viable cells was calculated using AlamarBlue®. FIG. 22F is a schematic showing AlamarBlue® viability assay. […] MDA-MB-468 cells were treated with the stated drugs for 72 hours at the PI60 and PI80. […] After 30 min at room temperature, cells were analyzed by flow cytometry.
# (§2) Indicated cells were plated in a 96-well plate containing the DMEM complete medium (see Example 11 for complete medium formulation, 100 μL per well) with a density of 3,000-5,000 cells per well for 12 hours followed by the addition of varying concentrations of inhibitors in rinse medium (100 μL). […] The fluorescence emission signals at 590 nm were read by Cytation 3 cell imaging multi-mode reader (BioTeK) using an excitation wavelength of 560 nm. […]
# BT-549 = assay: Cell viability assay (AlamarBlue); details: BT-549, 72 hours
# Protocol: as §1, §2
# Halo-Akt3 = target: T1, Halo-Akt3 (Homo sapiens, UniProt Q9Y243); assay: AKTAR FRET assay in live HEK293T cells; details: 48 hours drug, then 24 hours withdrawal
# T1 construct: expressed in transfected cells; host or cells: HEK293T
# Protocol: FIGS. 21C-21D: HEK293T cells were transfected with plasmids encoding AKTAR and Halo-Akt3 (1:1). After 12 hours, cells were treated with MK-2206 (5 μM) or MK-HNE (5 μM). After 24 hours and 48 hours Akt3 activity was measured using ratiometric FRET analysis in live cells. After 48 hours, cells were washed two times with drug-free media containing 10% FBS and allowed to recover in 3% FBS MEM media for another 24 hours, after which time Akt3 activity was assayed using FRET again. wd=withdrawal for 24 hours. […] FIG. 21D is a graph showing quantitation of all data sets for treatment of HEK293T cells expressing Halo-Akt3/AKTAR. […] FIG. 21F is a graph showing quantitation of all data sets for treatment of HEK293T cells expressing Halo-Akt2/AKTAR. […] FIG. 21H is a graph showing quantitation of all data sets for treatment of HEK293T cells expressing Halo-Akt3C119S mutant/AKTAR.
# HEK293T cells were plated in imaging plates at 60% confluence. […] The signals in the cyan channel (463-498 nm) and the yellow channel (525-620 nm) were recorded. […] For quantification, the mean CFP and YFP signal intensity was measured using Image by drawing a freehand circle around the cells, and the ratio image was calculated. […]
# One of the key benefits of covalent inhibition is the ability to uncouple pharmacokinetics from pharmacodynamics. […] Thus the ratio of green to blue emission is a direct readout of Akt activity in live cells.
compound,measurement,setting,value
"C#CCCCC(O)/C=C/C(=O)NC1(c2ccc(-c3nc4ccn5c(=O)[nH]nc5c4cc3-c3ccccc3)cc2)CCC1.Cl (stereo not shown) [MK-HNE, (E)-8-(4-(1-(4-Hydroxynon-2-en-8-ynamido)cyclobutyl)phenyl)-3-oxo-9-phenyl-2,3-dihydro-[1,2,4]triazolo[3,4-f][1,6]naphthyridin-7-ium Chloride]",Akt isozyme selectivity of inhibition,[1],Akt3≈Akt2>>Akt1
same,toxicity / potency relative to MK-2206,MDA-MB-468,less effective than MK-2206
same,toxicity / potency relative to MK-2206,BT-549,less effective than MK-2206
same,Akt3 activity (green/blue FRET ratio) after drug withdrawal,Halo-Akt3,significant Akt3 inhibition was retained
